Experimental data: article PMC2879712 (Journal of cellular biochemistry, 2010)

Target: the molecule itself
Assay: negative-stain electron microscopy

B1: mAbGB3.1-enriched sRAGE^HeLa (receptor, human, UniProt Q15109 23-342, looked up)
chain: AQNITARIGEPLVLKCKGAPKKPPQRLEWKLNTGRTEAWKVLSPQGGGPWDSVARVLPNGSLFLPAVGIQDEGIFRCQAMNRNGKETKSNYRVRVYQIPGKPEIVDSASELTAGVPNKVGTCVSEGSYPAGTLSWHLDGKPLVPNEKGVSVKEQTRRHPETGLFTLQSELMVTPARGGDPRPTFSCSFSPGLPRHRALRTAPIQPRVWEPVPLEEVQLVVEPEGGAVAPGGTVTLTCEVPAQPSPQIHWMKDGVPLPLPPSPVLILPEIGPQDQGTYSCVATHSSHGPQESRAVSISIIEPGEEGPTAGSVGGSGLGTLA
modifications: N-glycans enriched for carboxylated, multiantennary glycans
stoichiometry N: ≥ 4
